The values that follow are results of earlier work, collected in US20240269228A1 (priority 2021, published 2024).

By UniProt entry, the sequences of proteins in these tests, tags left out. Residues count along the entry.
UniProt Q9GZZ6, 25-450 limits assumed: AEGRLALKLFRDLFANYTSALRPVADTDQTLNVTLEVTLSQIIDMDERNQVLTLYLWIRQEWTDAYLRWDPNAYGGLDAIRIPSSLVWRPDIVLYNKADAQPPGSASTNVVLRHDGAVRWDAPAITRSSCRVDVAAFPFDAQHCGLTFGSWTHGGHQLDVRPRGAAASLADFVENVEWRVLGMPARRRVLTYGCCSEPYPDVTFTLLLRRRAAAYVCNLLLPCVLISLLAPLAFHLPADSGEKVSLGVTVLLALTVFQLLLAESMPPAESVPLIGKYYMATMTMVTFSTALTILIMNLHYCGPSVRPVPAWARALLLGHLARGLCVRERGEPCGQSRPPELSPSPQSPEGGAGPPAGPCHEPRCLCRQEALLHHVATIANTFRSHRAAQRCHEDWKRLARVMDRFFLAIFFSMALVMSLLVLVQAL
UniProt Q9UGM1, 26-479 limits assumed: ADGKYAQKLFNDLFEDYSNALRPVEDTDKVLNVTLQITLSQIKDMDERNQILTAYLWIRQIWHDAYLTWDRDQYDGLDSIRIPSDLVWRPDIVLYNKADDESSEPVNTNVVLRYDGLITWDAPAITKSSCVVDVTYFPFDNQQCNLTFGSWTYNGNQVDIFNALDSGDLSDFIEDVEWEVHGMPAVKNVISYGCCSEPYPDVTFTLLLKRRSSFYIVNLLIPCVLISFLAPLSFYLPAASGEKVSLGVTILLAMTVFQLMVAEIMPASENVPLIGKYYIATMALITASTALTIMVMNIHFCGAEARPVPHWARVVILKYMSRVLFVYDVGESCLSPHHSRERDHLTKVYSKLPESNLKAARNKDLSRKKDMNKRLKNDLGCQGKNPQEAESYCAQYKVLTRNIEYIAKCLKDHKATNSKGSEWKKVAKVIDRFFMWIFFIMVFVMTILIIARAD

For this data set, the target named is human α9α10 nAChR (Homo sapiens, UniProt Q9GZZ6+Q9UGM1). The note with it: cited from earlier work.

For G C C S D P R C R Y R C R [RgIA], the “decrease in potency on human α9α10 nAChRs” value is recorded as 300 fold.
